Assay results: patent US20260384442A1, “MACROCYCLIC COMPOUND AS CDK9 INHIBITOR AND USE THEREOF” (published 2026)

Chains of the proteins cited; added tags and fusions are not shown.
UniProt P23458, whole entry: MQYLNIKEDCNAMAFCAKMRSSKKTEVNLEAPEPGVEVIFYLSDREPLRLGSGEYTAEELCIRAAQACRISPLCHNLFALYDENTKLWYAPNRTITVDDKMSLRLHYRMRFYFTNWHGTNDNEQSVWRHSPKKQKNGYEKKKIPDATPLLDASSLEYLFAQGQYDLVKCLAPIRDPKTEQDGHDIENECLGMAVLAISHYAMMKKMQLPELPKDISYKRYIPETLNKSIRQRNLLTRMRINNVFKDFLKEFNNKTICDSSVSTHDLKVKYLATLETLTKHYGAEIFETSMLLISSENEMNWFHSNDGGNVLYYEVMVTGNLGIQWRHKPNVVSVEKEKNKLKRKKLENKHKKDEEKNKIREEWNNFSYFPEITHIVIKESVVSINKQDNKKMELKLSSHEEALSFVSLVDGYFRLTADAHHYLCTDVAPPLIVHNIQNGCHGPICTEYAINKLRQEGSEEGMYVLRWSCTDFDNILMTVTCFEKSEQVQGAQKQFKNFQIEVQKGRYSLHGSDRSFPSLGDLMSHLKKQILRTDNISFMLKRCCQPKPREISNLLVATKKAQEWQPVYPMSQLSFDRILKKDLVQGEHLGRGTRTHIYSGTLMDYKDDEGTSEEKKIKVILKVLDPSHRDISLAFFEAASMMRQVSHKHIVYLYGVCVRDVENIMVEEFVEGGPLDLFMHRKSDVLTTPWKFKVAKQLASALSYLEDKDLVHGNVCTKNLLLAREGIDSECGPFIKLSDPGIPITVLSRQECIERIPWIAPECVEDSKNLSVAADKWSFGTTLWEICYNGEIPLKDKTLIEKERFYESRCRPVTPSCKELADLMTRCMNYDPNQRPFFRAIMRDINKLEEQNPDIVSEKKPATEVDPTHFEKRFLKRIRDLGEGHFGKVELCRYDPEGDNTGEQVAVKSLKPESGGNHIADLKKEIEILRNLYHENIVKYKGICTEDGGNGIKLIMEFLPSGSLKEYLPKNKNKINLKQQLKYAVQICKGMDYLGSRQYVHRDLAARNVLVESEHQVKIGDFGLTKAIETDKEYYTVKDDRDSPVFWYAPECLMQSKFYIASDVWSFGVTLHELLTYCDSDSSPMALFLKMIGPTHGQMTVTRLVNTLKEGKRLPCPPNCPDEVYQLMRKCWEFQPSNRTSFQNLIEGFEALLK
UniProt P50750, whole entry: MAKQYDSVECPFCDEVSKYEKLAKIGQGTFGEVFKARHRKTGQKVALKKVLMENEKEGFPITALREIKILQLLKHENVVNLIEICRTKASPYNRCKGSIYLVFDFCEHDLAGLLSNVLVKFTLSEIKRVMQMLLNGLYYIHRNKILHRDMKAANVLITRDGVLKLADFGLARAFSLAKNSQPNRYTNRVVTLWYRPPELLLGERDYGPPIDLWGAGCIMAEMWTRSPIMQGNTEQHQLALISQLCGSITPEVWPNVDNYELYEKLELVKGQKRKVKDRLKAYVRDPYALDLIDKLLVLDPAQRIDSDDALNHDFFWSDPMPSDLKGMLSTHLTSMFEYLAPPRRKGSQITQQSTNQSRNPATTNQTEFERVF
UniProt O60674, whole entry: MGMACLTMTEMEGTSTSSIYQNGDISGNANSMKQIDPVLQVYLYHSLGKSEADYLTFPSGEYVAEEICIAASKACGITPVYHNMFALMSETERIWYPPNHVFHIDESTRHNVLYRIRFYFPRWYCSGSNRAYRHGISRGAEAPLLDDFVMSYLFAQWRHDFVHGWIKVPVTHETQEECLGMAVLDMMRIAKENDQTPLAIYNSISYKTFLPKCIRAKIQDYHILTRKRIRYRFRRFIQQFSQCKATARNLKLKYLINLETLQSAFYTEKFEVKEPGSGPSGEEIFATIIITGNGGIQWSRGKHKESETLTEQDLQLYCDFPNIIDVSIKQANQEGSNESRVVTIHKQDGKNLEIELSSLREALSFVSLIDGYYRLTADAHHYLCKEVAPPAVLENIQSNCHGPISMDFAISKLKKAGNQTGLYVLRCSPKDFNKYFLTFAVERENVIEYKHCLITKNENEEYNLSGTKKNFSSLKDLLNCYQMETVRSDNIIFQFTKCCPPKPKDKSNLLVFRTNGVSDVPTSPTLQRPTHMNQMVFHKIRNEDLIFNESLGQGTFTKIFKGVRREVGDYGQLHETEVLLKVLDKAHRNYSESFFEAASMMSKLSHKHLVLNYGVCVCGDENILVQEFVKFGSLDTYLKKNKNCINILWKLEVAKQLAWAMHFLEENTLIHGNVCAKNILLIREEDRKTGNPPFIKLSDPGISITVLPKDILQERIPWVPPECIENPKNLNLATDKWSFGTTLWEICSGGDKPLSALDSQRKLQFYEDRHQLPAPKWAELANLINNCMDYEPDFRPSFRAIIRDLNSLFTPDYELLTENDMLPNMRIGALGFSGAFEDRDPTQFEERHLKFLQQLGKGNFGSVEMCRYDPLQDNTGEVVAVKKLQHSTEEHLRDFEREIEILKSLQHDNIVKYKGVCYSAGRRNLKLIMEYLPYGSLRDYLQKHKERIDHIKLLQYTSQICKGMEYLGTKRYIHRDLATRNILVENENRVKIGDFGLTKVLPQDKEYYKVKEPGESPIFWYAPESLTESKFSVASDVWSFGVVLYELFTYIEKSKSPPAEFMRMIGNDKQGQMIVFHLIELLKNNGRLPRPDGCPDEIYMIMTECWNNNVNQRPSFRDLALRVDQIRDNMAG
UniProt Q5S007, whole entry: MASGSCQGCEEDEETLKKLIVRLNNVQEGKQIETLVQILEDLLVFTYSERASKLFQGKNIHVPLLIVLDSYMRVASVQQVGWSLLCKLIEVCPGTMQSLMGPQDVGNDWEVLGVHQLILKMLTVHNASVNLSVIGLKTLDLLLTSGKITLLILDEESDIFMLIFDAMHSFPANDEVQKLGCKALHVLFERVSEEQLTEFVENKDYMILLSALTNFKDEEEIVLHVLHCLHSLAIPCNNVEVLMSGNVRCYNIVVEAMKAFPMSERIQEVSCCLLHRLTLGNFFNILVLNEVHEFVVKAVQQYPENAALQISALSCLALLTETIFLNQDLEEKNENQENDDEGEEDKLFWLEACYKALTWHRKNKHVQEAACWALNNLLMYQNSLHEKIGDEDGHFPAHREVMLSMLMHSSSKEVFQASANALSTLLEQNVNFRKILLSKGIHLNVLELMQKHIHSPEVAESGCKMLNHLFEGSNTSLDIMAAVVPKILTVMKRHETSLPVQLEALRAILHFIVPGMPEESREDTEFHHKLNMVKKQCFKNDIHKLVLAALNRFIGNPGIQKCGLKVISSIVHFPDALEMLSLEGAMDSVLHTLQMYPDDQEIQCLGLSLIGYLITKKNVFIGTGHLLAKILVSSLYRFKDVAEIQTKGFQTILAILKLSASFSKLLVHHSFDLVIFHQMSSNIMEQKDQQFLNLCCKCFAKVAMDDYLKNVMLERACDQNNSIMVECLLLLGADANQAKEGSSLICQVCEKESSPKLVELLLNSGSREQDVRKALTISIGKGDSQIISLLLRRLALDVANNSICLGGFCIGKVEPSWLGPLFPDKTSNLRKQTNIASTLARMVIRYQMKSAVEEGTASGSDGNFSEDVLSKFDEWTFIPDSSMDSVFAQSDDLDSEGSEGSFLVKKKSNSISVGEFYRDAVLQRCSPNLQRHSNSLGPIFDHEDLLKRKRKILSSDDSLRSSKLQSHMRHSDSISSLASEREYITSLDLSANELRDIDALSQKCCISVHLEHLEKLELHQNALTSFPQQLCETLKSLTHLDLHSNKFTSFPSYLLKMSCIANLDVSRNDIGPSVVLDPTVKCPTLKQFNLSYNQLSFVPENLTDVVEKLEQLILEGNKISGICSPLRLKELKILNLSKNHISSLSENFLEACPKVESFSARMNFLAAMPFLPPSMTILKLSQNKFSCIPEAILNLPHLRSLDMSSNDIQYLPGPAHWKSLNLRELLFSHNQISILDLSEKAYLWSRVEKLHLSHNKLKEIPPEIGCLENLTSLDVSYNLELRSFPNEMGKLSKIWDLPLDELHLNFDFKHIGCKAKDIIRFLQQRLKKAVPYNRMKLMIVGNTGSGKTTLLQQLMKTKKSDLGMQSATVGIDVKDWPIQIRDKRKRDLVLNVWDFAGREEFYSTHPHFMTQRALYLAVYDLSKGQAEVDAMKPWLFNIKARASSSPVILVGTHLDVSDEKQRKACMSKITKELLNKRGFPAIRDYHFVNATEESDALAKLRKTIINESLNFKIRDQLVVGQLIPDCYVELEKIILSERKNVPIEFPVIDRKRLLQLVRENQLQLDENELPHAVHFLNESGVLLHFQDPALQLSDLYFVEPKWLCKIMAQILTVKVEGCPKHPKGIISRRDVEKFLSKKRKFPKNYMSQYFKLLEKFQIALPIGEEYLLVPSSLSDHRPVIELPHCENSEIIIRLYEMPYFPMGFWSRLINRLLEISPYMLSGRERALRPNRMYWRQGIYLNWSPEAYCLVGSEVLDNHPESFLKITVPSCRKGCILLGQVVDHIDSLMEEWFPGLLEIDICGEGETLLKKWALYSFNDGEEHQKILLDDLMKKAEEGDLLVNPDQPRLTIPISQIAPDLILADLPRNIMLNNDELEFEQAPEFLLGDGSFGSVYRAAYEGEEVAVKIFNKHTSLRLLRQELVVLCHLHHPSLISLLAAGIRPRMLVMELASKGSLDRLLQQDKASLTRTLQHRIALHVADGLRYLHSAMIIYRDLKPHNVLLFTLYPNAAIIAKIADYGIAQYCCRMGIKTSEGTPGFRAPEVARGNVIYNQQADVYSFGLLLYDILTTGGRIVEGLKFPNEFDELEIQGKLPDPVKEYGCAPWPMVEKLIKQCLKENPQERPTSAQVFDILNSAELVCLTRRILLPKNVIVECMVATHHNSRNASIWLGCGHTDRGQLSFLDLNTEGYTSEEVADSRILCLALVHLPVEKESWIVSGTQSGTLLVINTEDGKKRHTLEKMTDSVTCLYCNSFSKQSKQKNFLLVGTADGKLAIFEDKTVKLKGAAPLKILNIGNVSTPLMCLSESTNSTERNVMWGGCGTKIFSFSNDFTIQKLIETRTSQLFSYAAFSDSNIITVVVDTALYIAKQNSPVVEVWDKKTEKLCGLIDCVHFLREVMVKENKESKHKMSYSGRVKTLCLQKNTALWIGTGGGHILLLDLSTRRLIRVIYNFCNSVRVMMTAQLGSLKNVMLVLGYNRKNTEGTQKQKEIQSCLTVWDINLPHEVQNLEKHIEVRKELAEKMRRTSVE
UniProt O60563, whole entry partner: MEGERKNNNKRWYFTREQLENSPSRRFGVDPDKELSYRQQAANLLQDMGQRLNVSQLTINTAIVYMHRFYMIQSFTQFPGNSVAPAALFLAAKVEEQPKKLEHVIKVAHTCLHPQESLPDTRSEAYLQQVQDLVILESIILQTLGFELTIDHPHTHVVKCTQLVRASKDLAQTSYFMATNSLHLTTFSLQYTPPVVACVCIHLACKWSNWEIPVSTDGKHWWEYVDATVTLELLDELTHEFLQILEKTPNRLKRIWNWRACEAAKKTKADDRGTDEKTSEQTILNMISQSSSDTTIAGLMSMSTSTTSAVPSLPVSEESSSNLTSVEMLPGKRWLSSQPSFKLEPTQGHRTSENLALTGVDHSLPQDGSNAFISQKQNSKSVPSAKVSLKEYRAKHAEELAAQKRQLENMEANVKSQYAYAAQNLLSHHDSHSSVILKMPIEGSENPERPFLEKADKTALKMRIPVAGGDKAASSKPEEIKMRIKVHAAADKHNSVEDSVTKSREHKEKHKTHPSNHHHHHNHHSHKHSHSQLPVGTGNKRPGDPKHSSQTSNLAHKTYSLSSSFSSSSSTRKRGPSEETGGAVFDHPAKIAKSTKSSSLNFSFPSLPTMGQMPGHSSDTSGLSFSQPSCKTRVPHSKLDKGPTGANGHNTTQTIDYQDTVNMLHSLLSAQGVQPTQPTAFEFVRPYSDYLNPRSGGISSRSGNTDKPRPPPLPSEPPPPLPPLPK

Key:
JAK1 = JAK1 (Homo sapiens, UniProt P23458); assay: Kinase selectivity at 10 nM, JAK1
Method: (§1) The inhibitory effect of the compounds on the activity of CDK9 protein kinase was detected by the caliper mobility shift assay method. 250 nL of the compound at 100-fold final concentration was transferred to a target 384-well-plate with a dispenser Echo 550. A kinase solution at 2.5-fold final concentration was prepared using 1× kinase buffer. 10 μL of the kinase solution at 2.5-fold final concentration was added to the compound well and positive control well respectively. 10 μL of 1× kinase buffer was added to the negative control well. The 384-well plate was centrifuged at 1000 rpm for 30 seconds and incubated at room temperature for 10 minutes. A mixed solution of ATP and kinase substrate at 5/3-fold final concentration was prepared with 1× kinase buffer, and to the 384-well plate was added with 15 μL per well of the mixed solution of ATP and substrate at 5/3-fold final concentration to start the reaction. The plate was centrifuged at 1000 rpm for 30 seconds, shaken to mix evenly, and incubated at room temperature for a corresponding time. 30 μL of detection stopping solution was added to terminate the kinase reaction. The 384-well plate was centrifuged at 1000 rpm for 30 seconds and shaken to mix evenly. The conversion rate was read with Caliper EZ Reader. The percent conversion inhibition rate=(% positive control conversion rate mean−% sample conversion rate/(% positive control conversion rate mean−% negative control conversion rate mean). Among them: negative control wells represent the conversion rate readings of kinase buffer background wells; positive control wells represent the conversion rate readings of wells without inhibition by compound. With the log value of concentration as the x-axis and the percentage inhibition rate as the y-axis, a dose-response curve was fitted using the log (inhibitor) vs. response—Variable slope of the analysis software GraphPad Prism 5 to obtain the IC50 value of each compound on enzyme activity. Calculation formula: y=Bottom+(Top− Bottom)/(1+10^((Log IC50−x)×hillslope)), x: logarithm of inhibitor concentration; y: % inhibition rate.
(§2) According to the description of the above experiment on kinase activity inhibition, some compounds were tested for their selective inhibition rate against the kinases of CDK7, CDK9, JAK1, JAK2, JAK3, ITK, RET, TYK2, and LRRK2 at 10 nM.

CDK9 = CDK9 (Homo sapiens, UniProt P50750); assay: Inhibition on CDK9 kinase activity, caliper mobility shift assay; settings: 10 nM
Method: Compounds were tested at a concentration of 10 nM with detection in duplicate wells, or tested at 10 concentrations starting from 10 μM with three-fold serial dilutions, with detection in duplicate wells.
as §1, §2

JAK2 = JAK2 (Homo sapiens, UniProt O60674); assay: Kinase selectivity at 10 nM, JAK2
Method: as §1, §2

LRRK2 = LRRK2 (Homo sapiens, UniProt Q5S007); assay: Kinase selectivity at 10 nM, LRRK2
Method: as §1, with “rate. […]” for “rate.”

- inhibition rate JAK1 (JAK1): C (<25%)
- inhibition rate on CDK9 kinase activity (CDK9; duplicate wells (Table 1)): A (>50%)
- inhibition rate CDK9 (CDK9; selectivity panel (Table 3)): A (>50%)
- inhibition rate JAK2 (JAK2): C (<25%)
- inhibition rate LRRK2 (LRRK2): C (<25%)
Structure (SMILES): Cc1ccc2cc1-c1nc(ncc1Cl)Nc1cccc(c1)NC/C=C\CN2
